Reference: patent publication US10626125B2, “1,1,1-trifluoro-3-hydroxypropan-2-yl carbamate derivatives as MAGL inhibitors” (PFIZER INC., priority 2017, dated 2020)

The chains behind the UniProt entries cited, without tags or fusion partners.
UniProt Q99685, whole entry: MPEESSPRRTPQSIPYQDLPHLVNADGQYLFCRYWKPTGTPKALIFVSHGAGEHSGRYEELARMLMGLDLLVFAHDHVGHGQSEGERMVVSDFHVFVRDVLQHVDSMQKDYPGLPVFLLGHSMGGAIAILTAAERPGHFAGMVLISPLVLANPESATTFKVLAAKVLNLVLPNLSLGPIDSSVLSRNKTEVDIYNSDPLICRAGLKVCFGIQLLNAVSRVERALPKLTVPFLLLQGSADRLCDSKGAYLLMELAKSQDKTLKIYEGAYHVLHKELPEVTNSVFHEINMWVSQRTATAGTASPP

What was measured:
[1] = biological target: T1, human recombinant Monoacylglycerol Lipase (Homo sapiens, UniProt Q99685); test: MAGL enzymatic assay (IC50; 7-HCA substrate added at T=0 min or T=30 min); format: biochemical
[2] = biological target: T1, human recombinant Monoacylglycerol Lipase; test: MAGL inactivation (kinact/KI from enzyme progress curves, T=0 min protocol); details: from plot of Kobs vs. compound concentration, geometric mean of 2-5 determinations (b: ≥6)

With CN(C(=O)C(C)(C)C)[C@H]1COC2(CCN(C(=O)O[C@H](CO)C(F)(F)F)CC2)C1 [Example 7, (2R)-1,1,1-Trifluoro-3-hydroxypropan-2-yl (3R)-3-[(2,2-dimethylpropanoyl)(methyl)amino]-1-oxa-8-azaspiro[4.5]decane-8-carboxylate] the IC50 ([1]; MAGL (T = 0 min) IC50) was 37 nM, the IC50 ([1]; MAGL (T = 30 min) IC50) was 3 nM and the “MAGL kinact/KI” value [2] was 19700 1/s per M.
In the case of O=C(O[C@H](CO)C(F)(F)F)N1CCC2(CC1)CC(Oc1ccc(C(F)F)nc1)C2 [Example 19, (2R)-1,1,1-Trifluoro-3-hydroxypropan-2-yl 2-{[6-(difluoromethyl)pyridin-3-yl]oxy}-7-azaspiro[3.5]nonane-7-carboxylate], the “MAGL kinact/KI” value [2] is reported as 78900 1/s per M.
